Assay results reported in BindingDB's records for doi:10.1111/cbdd.12243 (Shandong Institute of Pharmaceutical Industry, 2014).

The chains behind the UniProt entries cited, without tags or fusion partners.
UniProt Q504U8, whole entry: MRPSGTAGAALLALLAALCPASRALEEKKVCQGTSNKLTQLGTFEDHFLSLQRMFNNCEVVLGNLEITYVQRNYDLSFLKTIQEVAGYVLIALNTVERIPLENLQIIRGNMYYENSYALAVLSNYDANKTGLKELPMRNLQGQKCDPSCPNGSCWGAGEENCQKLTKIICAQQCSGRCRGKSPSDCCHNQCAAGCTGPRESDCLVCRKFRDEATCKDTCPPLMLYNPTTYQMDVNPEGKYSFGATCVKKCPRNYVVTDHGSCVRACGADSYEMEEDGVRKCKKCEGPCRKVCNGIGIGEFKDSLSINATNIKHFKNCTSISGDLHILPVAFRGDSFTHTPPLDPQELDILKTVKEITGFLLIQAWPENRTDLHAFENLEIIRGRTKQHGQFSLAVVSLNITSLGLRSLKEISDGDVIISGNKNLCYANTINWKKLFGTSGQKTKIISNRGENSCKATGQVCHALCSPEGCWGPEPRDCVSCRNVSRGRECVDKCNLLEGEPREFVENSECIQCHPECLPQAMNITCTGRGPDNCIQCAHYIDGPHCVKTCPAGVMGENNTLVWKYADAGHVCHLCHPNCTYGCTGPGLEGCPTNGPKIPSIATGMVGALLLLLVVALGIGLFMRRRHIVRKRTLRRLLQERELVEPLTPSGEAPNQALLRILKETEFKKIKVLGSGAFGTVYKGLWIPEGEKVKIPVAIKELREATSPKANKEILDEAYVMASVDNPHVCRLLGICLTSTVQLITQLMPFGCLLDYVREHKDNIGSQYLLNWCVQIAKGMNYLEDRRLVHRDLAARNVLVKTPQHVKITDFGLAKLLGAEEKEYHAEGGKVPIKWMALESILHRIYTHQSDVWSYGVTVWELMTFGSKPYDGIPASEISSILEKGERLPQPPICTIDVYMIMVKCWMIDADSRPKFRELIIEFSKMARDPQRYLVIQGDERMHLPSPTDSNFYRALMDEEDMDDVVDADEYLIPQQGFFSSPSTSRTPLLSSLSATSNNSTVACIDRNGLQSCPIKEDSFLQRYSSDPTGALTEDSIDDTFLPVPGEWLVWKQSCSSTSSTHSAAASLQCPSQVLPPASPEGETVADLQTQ

Molecular target: Receptor protein-tyrosine kinase (Homo sapiens, UniProt Q504U8)
Test: Z-LYTE biochemical assay
Conditions: 25 °C
Experimental: The reaction was stopped by the addition of 5 µL stop reagent.

SMILES: Cc1ccc(Nc2nccc(N(C)c3ccc4c(C)n(C)nc4c3)n2)cc1S(N)(=O)=O [GW-786034]
- IC50: 5.95 µM
